Experimental data reported in patent US9783511B2, “Carbamate benzoxazine propionic acids and acid derivatives for modulation of RORgamma activity and the treatment of disease” (Merck Sharp & Dohme Corp., priority 2013, dated 2017).

The chains behind the UniProt entries cited, without tags or fusion partners. Residues count along the entry.
UniProt P51449, 269-508: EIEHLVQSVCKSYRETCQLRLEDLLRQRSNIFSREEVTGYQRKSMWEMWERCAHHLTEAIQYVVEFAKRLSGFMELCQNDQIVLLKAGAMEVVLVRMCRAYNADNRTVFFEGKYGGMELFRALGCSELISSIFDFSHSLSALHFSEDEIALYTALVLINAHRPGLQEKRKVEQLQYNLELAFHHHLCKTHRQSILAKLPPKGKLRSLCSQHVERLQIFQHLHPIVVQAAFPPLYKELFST

Each molecule was assayed against human RORgammaT-Ligand Binding Domain (LBD) (Homo sapiens (Human), UniProt P51449) (assay: RORγ-Ligand Binding Domain TR-FRET Assay (co-activator peptide SRC1_2 recruitment)). Settings: HIS-tagged RORγ-LBD 3 nM, biotinylated SRC1 LXXLL peptide 100 nM, incubated overnight at 4° C., 665 nm/615 nm ratio.
Assay type: biochemical
Text: Activation of RORgammaT activity can be measured using, e.g., a biochemical TR-FRET assay. In such an assay, interaction of cofactor-derived peptides with human RORgammaT-Ligand Binding Domain (LBD) can be measured.
To identify novel antagonists of RORgammaT, an assay was developed which employs the interaction of RORgammaT with its co-activator peptide SRC1_2. […] The RORγ-Ligand Binding Domain TR-FRET Assay was run according to the following protocol.
HIS-tagged RORγ-LBD protein was recombinantly expressed in Escherichia coli. The RORγ-LBD protein was purified by Ni^2+-affinity resin. Purified protein was then diluted in assay buffer (50 mM Tris pH 7.0, 50 mM KCl, 1 mM EDTA, 0.1 mM DTT, 100 μg/mL bovine serum albumin, delipidated) to obtain a RORγ-LBD final concentration of 3 nM.
Compounds to be tested were injected to the 384-well assay plate using Acoustic Droplet Ejection technology by Echo 550 liquid handler (Labcyte, CA).
Molecule `CC(C[C@H]1CN(S(=O)(=O)c2ccc(F)c(Cl)c2)c2cc(NC(=O)OC(C)(C)C(F)(F)F)ccc2O1)C(=O)O` (single isomer, unassigned) [Example 5A, (S or R)-3-((S)-4-((3-chloro-4-fluorophenyl)sulfonyl)-6-((((1,1,1-trifluoro-2-methylpropan-2-yl)oxy)carbonyl)amino)-3,4-dihydro-2H-benzo[b][1,4]oxazin-2-yl)-2-methylpropanoic acid] has an IC50 of 7 nM. For `CCOC(=O)C(C)C[C@H]1CN(S(=O)(=O)c2ccc(F)c(Cl)c2)c2cc(NC(=O)OC(C)(C)C(F)(F)F)ccc2O1` (single isomer, unassigned) [Example 2B, (R or S)-ethyl 3-((S)-4-((3-chloro-4-fluorophenyl)sulfonyl)-6-((((1,1,1-trifluoro-2-methylpropan-2-yl)oxy)carbonyl)amino)-3,4-dihydro-2H-benzo[b][1,4]oxazin-2-yl)-2-methylpropanoate], the IC50 was 6 nM. `CCn1cc(S(=O)(=O)N2C[C@H](C[C@H](C(=O)O)C3CC3)Oc3ccc(NC(=O)OC(C)(C)C(F)(F)F)cc32)c(OCCO)n1` (single isomer, unassigned) [Example 10Y, (S or R)-2-cyclopropyl-3-((S)-4-((1-ethyl-3-(2-hydroxyethoxy)-1H-pyrazol-4-yl)sulfonyl)-6-((((1,1,1-trifluoro-2-methylpropan-2-yl)oxy)carbonyl)amino)-3,4-dihydro-2H-benzo[b][1,4]oxazin-2-yl)propanoic acid] gave an IC50 of 132 nM. `CCOC(=O)C(C)C[C@H]1CN(S(=O)(=O)c2ccc(F)c(Cl)c2)c2cc(NC(=O)OC(C)(C)C(F)(F)F)ccc2O1` (single isomer, unassigned) [Example 2A, (S or R)-ethyl 3-((S)-4-((3-chloro-4-fluorophenyl)sulfonyl)-6-((((1,1,1-trifluoro-2-methylpropan-2-yl)oxy)carbonyl)amino)-3,4-dihydro-2H-benzo[b][1,4]oxazin-2-yl)-2-methylpropanoate] gave an IC50 of 7 nM. `CC(C[C@H]1CN(S(=O)(=O)c2ccc(F)c(Cl)c2)c2cc(NC(=O)OC(C)(C)C(F)(F)F)ccc2O1)C(=O)O` (single isomer, unassigned) [Example 5B, (R or S)-3-((S)-4-((3-chloro-4-fluorophenyl)sulfonyl)-6-((((1,1,1-trifluoro-2-methylpropan-2-yl)oxy)carbonyl)amino)-3,4-dihydro-2H-benzo[b][1,4]oxazin-2-yl)-2-methylpropanoic acid] gave an IC50 of 8 nM.
